Test results: publication PMC10616419 (The Journal of Biological Chemistry, 2023)

Protein sequences, listed by entry. Tags and fused reporters are not part of them.
UniProt O35433, whole entry: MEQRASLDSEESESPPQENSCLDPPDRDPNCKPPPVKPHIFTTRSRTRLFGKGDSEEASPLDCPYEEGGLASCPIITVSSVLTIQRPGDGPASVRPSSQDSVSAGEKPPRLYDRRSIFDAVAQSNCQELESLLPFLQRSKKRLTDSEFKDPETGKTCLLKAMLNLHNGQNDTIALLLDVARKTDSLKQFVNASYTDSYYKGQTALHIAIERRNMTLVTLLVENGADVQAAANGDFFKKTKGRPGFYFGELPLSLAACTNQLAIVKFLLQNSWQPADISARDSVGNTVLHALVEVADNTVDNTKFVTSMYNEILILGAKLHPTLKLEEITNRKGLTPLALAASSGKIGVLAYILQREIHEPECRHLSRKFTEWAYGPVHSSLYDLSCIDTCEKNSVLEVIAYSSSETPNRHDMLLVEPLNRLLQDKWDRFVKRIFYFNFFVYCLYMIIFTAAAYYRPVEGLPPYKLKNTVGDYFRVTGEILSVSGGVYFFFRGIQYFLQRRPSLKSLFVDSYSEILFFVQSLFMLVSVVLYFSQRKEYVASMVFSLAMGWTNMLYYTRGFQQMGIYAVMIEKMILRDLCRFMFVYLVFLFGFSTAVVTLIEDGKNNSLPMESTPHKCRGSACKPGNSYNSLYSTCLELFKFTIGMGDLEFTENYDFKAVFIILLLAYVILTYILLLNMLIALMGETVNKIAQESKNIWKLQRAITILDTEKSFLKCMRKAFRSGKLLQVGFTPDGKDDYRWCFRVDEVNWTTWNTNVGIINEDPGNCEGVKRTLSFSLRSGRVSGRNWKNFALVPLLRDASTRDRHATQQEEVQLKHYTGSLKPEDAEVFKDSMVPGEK
UniProt O35433, whole entry Y511A: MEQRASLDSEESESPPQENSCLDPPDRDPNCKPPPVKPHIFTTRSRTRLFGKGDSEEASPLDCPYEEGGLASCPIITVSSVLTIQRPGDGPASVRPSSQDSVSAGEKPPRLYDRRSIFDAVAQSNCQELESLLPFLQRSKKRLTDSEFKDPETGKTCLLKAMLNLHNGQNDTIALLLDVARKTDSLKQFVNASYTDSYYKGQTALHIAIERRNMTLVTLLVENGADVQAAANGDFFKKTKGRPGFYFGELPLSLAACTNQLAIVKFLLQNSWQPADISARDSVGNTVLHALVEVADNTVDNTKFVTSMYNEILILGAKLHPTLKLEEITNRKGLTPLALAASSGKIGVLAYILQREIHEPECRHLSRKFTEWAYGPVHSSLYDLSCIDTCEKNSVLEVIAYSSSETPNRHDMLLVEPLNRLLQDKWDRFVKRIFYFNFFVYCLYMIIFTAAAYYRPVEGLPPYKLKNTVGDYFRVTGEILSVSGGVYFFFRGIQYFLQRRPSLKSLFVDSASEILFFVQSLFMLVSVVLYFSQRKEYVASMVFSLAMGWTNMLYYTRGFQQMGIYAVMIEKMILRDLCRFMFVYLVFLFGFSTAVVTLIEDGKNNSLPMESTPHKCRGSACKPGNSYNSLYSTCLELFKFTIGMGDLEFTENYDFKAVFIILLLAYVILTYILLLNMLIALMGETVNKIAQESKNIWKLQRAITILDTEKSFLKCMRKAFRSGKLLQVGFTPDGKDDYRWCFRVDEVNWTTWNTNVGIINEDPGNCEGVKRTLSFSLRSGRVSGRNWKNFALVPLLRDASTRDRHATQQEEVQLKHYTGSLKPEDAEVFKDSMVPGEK

How the values were obtained:
Format in all cases: cell-based
[1] = target: T1, wildtype (Y) subunit of rat TRPV1 concatemers (Rattus norvegicus, UniProt O35433)
T1 construct: expressed in transfected cells; host or cells: TSA201 (HEK293T) cells, transient transfection

[2] = target: T2, YYAA concatemer rat TRPV1 (two Y511A mutant subunits) (Rattus norvegicus, UniProt O35433, Y511A)
T2 construct: expressed in transfected cells; host or cells: TSA201 (HEK293T) cells, transient transfection; excised inside-out patches

[3] = target: T3, Y511A mutant subunit of rat TRPV1 (YYYA and YYAA concatemers) (Rattus norvegicus, UniProt O35433, Y511A)
T3 construct: expressed in transfected cells; host or cells: TSA201 (HEK293T) cells, transient transfection

Question: For `COc1cc(CNC(=O)CCCC/C=C/C(C)C)ccc1O` [capsaicin], which fY [1] is on record?
Answer: The fY was 10.7.

Question: And the cooperative factor f [2]?
Answer: Its cooperative factor f is 10.3.

Question: And the cooperative factor f [3]?
Answer: Its cooperative factor f is 10.7.
